In US5756545A, “Biphenysulfonamide matrix metal alloproteinase inhibitors” (priority 1997, dated 1998):

Columns and labels:
[1] = molecular target: gelatinase A-catalytic domain; experiment: gelatinase A catalytic domain hydrolysis of thiopeptolide, GA CD (T); type: biochemical; settings: thiopeptolide substrate
[2] = molecular target: gelatinase A-catalytic domain; experiment: gelatinase A catalytic domain hydrolysis of gelatin, GA CD (Gel); type: biochemical; settings: gelatin substrate

IC50 [1] [µM] | IC50 [2] [µM] | SMILES
0.002 | 0.005 | Cc1ccc(-c2ccc(S(=O)(=O)N[C@H](C(=O)O)C(C)C)cc2)cc1 [Example 18, (S)-3-Methyl-2-(4'-methyl-biphenyl-4-sulfonylamino)-butyric Acid]
0.067 | 0.371 | CC(C)[C@H](NS(=O)(=O)c1ccc(-c2cccc(F)c2)cc1)C(=O)O [Example 17, (S)-2-(3'-Fluoro-biphenyl-4-sulfonylamino)-3-methyl-butyric Acid]

SMILES | IC50 [1] [µM] | IC50 [2] [µM]
CC(C)[C@H](NS(=O)(=O)c1ccc(-c2ccc(C(F)(F)F)cc2)cc1)C(=O)O [Example 19, (S)-3-Methyl-2-(4'-trifluoromethyl-biphenyl-4-sulfonylamino)-butyric Acid] | 0.008 | 0.075
